PubChem BioAssay AID743266 (National Center for Advancing Translational Sciences (NCATS), 2014)
This is a selection; strong and weak results do not stand in their true shares. Some tests of the compounds listed are not included; inactive here does not mean inactive elsewhere. Active and inactive are the calls of the source. The call rests on the fitted dose curve; in most records, active means well fitted activation curve with a large enough effect; inconclusive means small, poorly fitted or top-dose-only effect, or another doubt; inactive means no such curve, though single readings can be large or run the other way.

Amino acid sequences for entries named in this document (tags omitted).
UniProt Q03431, whole entry: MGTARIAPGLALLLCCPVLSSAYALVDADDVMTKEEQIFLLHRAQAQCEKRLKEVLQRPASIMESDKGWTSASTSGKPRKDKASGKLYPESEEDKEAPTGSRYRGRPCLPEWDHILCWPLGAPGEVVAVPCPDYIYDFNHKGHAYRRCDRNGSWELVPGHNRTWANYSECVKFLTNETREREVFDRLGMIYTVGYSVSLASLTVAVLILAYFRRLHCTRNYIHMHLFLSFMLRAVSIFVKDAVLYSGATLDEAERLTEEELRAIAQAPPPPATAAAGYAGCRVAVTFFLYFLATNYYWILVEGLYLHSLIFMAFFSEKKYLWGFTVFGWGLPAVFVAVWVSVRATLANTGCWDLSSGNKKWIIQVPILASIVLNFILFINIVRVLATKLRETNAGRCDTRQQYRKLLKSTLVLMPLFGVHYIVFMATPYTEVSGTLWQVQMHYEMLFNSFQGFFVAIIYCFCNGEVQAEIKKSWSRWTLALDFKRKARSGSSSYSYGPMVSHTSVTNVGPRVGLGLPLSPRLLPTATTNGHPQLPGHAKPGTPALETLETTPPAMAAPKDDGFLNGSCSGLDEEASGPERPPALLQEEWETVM

Target: Parathyroid hormone/parathyroid hormone-related peptide receptor (Homo sapiens) (UniProt Q03431)
Assay: qHTS for PTHR1 Agonists: Primary Screen; further: nearly all actives have a fitted effect of over 55% in size
Details: HEK293 GP2 PTHR1 cells, GloSensor cAMP luminescence, 1 h; activation: at 115 µM (top of the series) unless noted

SMILES | activation | outcome
Cc1cc(C(=O)NCC2(N3CCCCC3)CCCCC2)ccc1[N+](=O)[O-] | inactive: -13.3% | –
CCN1CCCC(OC(=O)C2(O)c3ccccc3C=Cc3ccccc32)C1 (configuration not stated) | inactive | –
O=C(NCC1(N2CCCCC2)CCCCC1)c1cccc(Br)c1 | inactive | –
COc1ccc(C(=O)NCC2(N(C)C)CCCCC2)cc1 | inactive | –
CCOc1cccc(C(=O)NCC2(N(C)C)CCCCC2)c1 | inactive | –
C=CCN1CCN(CCOC(=O)C(O)(c2ccccc2)c2ccccc2)CC1 | inactive | –
O=C(NCC1(N2CCCCC2)CCCCC1)c1cc(F)c(F)cc1Cl | inactive: 5.12% | –
CCCCOc1ccccc1C(=O)NCC1(N(C)C)CCCCC1 | inactive: 4.82% | –
CN(C)C1(CNC(=O)c2ccccc2[N+](=O)[O-])CCCCC1 | inactive | –
Cc1ccccc1C(=O)NCC1(N2CCCCC2)CCCCC1 | inactive | –
CN(C)C1CCCC1OC(=O)C(O)(c1ccccc1)c1ccccc1 (configuration not stated) | inactive: -19.1% | –
CN(C)c1ccc(C(=O)NCC2(N(C)C)CCCCC2)cc1 | inactive | –
CN(C)C1(CNC(=O)c2ccccc2F)CCCCC1 | inactive: -9.96% | –
Cc1ccc(C(=O)NCC2(N3CCCCC3)CCCCC2)cc1 | inactive | –
CC(C)N1C(=O)CC2(CCN(CCOC(=O)C(O)(c3ccccc3)c3ccccc3)CC2)C1=O | inactive: -29.4% [at 57.5 µM] | –
CCN(CC)CC(C)C(C)OC(=O)C(O)(c1ccccc1)c1ccccc1 (configuration not stated) | inactive | –
CN(C)C1(CNC(=O)c2cccc(Cl)c2)CCCCC1 | inactive: -21% | –
COc1cc(SC)ccc1C(=O)NCC1(N(C)C)CCCCC1 | inactive: -13.2% | –

SMILES | activation | outcome
CN1[C@@H]2CC[C@H]1CC(OC(=O)C(O)(c1ccccc1)c1ccccc1)C2 (some centres not stated) | inactive | –
O=C(NCC1(N2CCCCC2)CCCCC1)c1cc([N+](=O)[O-])ccc1Cl | inactive | –
CN(C)c1cccc(C(=O)NCC2(N(C)C)CCCCC2)c1 | inactive: -8.4% | –
CC(C)Oc1ccc(C(=O)NCC2(N(C)C)CCCCC2)cc1 | inactive: -4.73% | inactive
O=C(OCCN1CCCC1)C(O)(c1ccccc1)c1ccccc1 | inactive: -21.5% | –
Cc1cccc(C(=O)NCC2(N(C)C)CCCCC2)c1 | inactive | –
COc1cc(C(=O)NCC2(N(C)C)CCCCC2)cc(OC)c1OC | inactive | –
COc1ccc(Br)c(C(=O)NCC2(N3CCCCC3)CCCCC2)c1 | inactive: 13.3% | –
C=C(C)C#CC(O)(C(=O)OC1CCN(C)CC1)c1ccccc1 (configuration not stated) | inactive: -10.8% | –
CC(C)COc1ccc(C(=O)NCC2(N(C)C)CCCCC2)cc1 | inactive: -17.5% | –
O=C(OC1CN2CCC1CC2)C(CO)(c1ccccc1)c1ccccc1 (configuration not stated) | inactive: -52.9% [at 57.5 µM] | –
COc1cccc(C(=O)NCC2(N3CCOCC3)CCCCC2)c1 | inactive: -9.69% | –
O=C(NCC1(N2CCCCC2)CCCCC1)c1cccc(Cl)c1 | inactive: -48.3% | –
COc1ccc(C(=O)NCC2(N(C)C)CCCCC2)cc1Cl | inactive | –
COc1cccc(C(=O)NCC2(N3CCCCC3)CCCCC2)c1 | inactive | –
COc1ccc(Cl)cc1C(=O)NCC1(N(C)C)CCCCC1 | inactive: -5.95% | –
COc1cc(C(=O)NCC2(N(C)C)CCCCC2)c([N+](=O)[O-])cc1OC | inactive | –
CN(C)C1(CNC(=O)c2ccc(Br)cc2)CCCCC1 | inactive: -18.5% | –
